We go through 32 molecules from EP4847503A1, “TETRAZOLE COMPOUND, PHARMACEUTICAL COMPOSITION THEREOF AND USE THEREOF” (dated 2026).

Chains of the proteins cited; added tags and fusions are not shown.
UniProt P50052, whole entry: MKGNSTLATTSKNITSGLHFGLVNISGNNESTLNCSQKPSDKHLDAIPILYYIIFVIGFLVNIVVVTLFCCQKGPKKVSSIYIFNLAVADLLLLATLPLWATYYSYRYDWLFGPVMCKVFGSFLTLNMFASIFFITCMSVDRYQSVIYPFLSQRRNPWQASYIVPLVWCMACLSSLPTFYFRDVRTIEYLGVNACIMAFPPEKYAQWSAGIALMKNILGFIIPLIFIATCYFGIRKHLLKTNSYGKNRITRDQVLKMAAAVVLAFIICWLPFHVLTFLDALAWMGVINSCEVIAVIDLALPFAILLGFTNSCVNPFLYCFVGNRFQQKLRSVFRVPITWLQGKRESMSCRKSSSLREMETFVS

In the first data set the target is AT2 receptor (Homo sapiens, UniProt P50052). Briefly: AT2R Binding assay (Tag-lite HTRF, affinity for AT2 receptor). The conditions noted are these: read-out: AT2R IC50; Tag-lite Angiotensin AT2 labeled Cells, 25 °C, 1 hour. How it is done:
Test Example 1 Determination of the affinity of the test compounds for AT2 receptor by AT2R Binding assay
1. Reagent preparation • 1.1 Cell line: Tag-lite Angiotensin AT2 labeled Cells; • 1.2 Assay buffer: 1X TLB (5 mL 5X TLB + 20 mL H2O); 2. Activity assay of the test compounds • 2.1 1X TLB assay buffer, 4X working solutions of the test compounds, and 4X Tag-lite angiotensin receptor red agonist (Cisbio, L0007RED) were prepared; • 2.2 One vial of labeled-AT2R cells was thawed in a water bath at 37 °C until the ice completely melted (1-2 min). The thawed cells were quickly transferred to 5 mL of 1X TLB, mixed gently, and centrifuged at 200 g for 5 min; • 2.3 The supernatant was discarded, and the cells were resuspended and mixed with 1 mL of 1X TLB. Then, 1.7 mL of 1X TLB was added and mixed, and the mixture was kept at room temperature for later use; • 2.4 10 µL of cells were added to a 384-well plate (Greiner, 784075) and centrifuged at 200 g at RT for 3 s; 5 µL of the 4X compound was added to the 384-well plate; 5 µL of the 4X Tag-lite angiotensin receptor red agonist was added to all test wells; • 2.5 The reaction plate was left to stand at room temperature of 25 °C for 1 hour, and then centrifuged at 200 g, RT for 60 s. Data was collected using an Envision HTRF detector. 3. Data analysis • 3.1 Calculation of % inhibition: [formula] • 3.2 Calculation of compound IC50 using GraphPad non-linear fitting formula: Y = Bottom + (Top-Bottom)/(1+10^(∧)((LogIC50-X)*HillSlope)) [formula] • X: log value of compound concentration; Y: % inhibition 4. Experimental results
On the technique in general: TR-FRET usually uses a lanthanide donor and a delayed reading to cut background.
For `CC(C)Cc1cc(C(F)F)c(-c2nn[nH]n2)c(N2CCN(Cc3cccnn3)[C@@H](C)C2)c1`, the IC50 was 3.8 nM.
The same measure, in the same setting: to `CC(C)Cc1cc(NC2CC2)c(-c2nn[nH]n2)c(N2CCN(Cc3cccnn3)[C@@H](C)C2)c1` belongs 6.6 nM; to `CC(C)Cc1cc(NC2(C)CCC2)c(-c2nn[nH]n2)c(N2CCN(Cc3cccnn3)[C@@H](C)C2)c1`, 11 nM.
For the molecule `CC(C)Cc1cc(N2CCN(Cc3cccnn3)[C@@H](C)C2)c(-c2nn[nH]n2)c(N2CCC3(CC3)C2)c1`, the IC50 is 5.08 nM.
`CCn1cc(Nc2cc(CC(C)C)cc(N3CCN(Cc4cccnn4)[C@@H](C)C3)c2-c2nn[nH]n2)cn1`: the IC50 was determined as 2.96 nM.
On the same count and under the same terms, under `CC(C)Cc1cc(Cn2cc(C3CC3)cn2)c(-c2nn[nH]n2)c(N2CCN(Cc3cccnn3)[C@@H](C)C2)c1` stands 0.891 nM; under `CO[C@@H]1CCC[C@H]1Nc1cc(CC(C)C)cc(N2CCN(Cc3cccnn3)[C@@H](C)C2)c1-c1nn[nH]n1`, 12.8 nM.
Still for that read-out and setting: to `COC1CC1Nc1cc(CC(C)C)cc(N2CCN(Cc3cccnn3)[C@@H](C)C2)c1-c1nn[nH]n1` (some centres unmarked) belongs 7.18 nM; to `CC(C)Cc1cc(N[C@H]2CCC(F)(F)C2)c(-c2nn[nH]n2)c(N2CCN(Cc3cccnn3)[C@@H](C)C2)c1`, 3.31 nM.
On the same count and under the same terms, under `CC(C)Cc1cc(NC2CCC(F)(F)CC2)c(-c2nn[nH]n2)c(N2CCN(Cc3cccnn3)[C@@H](C)C2)c1` stands 3.35 nM; under `Cc1cnn(Cc2cc(CC(C)C)cc(N3CCN(Cc4cccnn4)[C@@H](C)C3)c2-c2nn[nH]n2)c1`, 1.78 nM.
Take `COC1CCCCC1Nc1cc(CC(C)C)cc(N2CCN(Cc3cccnn3)[C@@H](C)C2)c1-c1nn[nH]n1` (some centres unmarked): the IC50 turned out to be 17.7 nM.
The same measure, in the same setting: under `CC(C)Cc1cc(N2CCN(Cc3cccnn3)[C@@H](C)C2)c(-c2nn[nH]n2)c(N2CC(F)(F)C2)c1` stands 2.36 nM; under `CC(C)Cc1cc(Nc2cnn(C(C)C)c2)c(-c2nn[nH]n2)c(N2CCN(Cc3cccnn3)[C@@H](C)C2)c1`, 1.9 nM.
As to `CC(C)Cc1cc(OC2CC(F)(F)C2)c(-c2nn[nH]n2)c(N2CCN(Cc3cccnn3)[C@@H](C)C2)c1`, the IC50 worked out at 4.11 nM.
On the same count and under the same terms, to `CC(C)Cc1cc(N[C@@H]2CCC(F)(F)C2)c(-c2nn[nH]n2)c(N2CCN(Cc3cccnn3)[C@@H](C)C2)c1` belongs 3.01 nM.
The same measure, in the same setting: under `COCCNc1cc(CC(C)C)cc(N2CCN(Cc3cccnn3)[C@@H](C)C2)c1-c1nn[nH]n1` stands 18.2 nM; under `CC(C)Cc1cc(NC(=O)C2CC2)c(-c2nn[nH]n2)c(N2CCN(Cc3cccnn3)[C@@H](C)C2)c1`, 11.9 nM; under `CC(C)Cc1cc(N2CC3C(C2)C3(F)F)c(-c2nn[nH]n2)c(N2CCN(Cc3cccnn3)[C@@H](C)C2)c1` (some centres unmarked), 4.11 nM.
For `CC(C)Cc1cc(NC2CCCC2)c(-c2nn[nH]n2)c(N2CCN(Cc3cccnn3)[C@@H](C)C2)c1`, the IC50 was 3.8 nM.
Still for that read-out and setting: under `Cc1cnn(-c2cc(CC(C)C)cc(N3CCN(Cc4cccnn4)[C@@H](C)C3)c2-c2nn[nH]n2)c1` stands 25.5 nM.
Take `CC(C)Cc1cc(O[C@H]2CCOC2)c(-c2nn[nH]n2)c(N2CCN(Cc3cccnn3)[C@@H](C)C2)c1`: the IC50 worked out at 5.05 nM.
Still for that read-out and setting: to `CC(C)Cc1cc(NCC(F)F)c(-c2nn[nH]n2)c(N2CCN(Cc3cccnn3)[C@@H](C)C2)c1` belongs 2.96 nM.
As to `CC(C)Cc1cc(N2CCN(Cc3cccnn3)[C@@H](C)C2)c(-c2nn[nH]n2)c(N2CC3(C2)CC(F)(F)C3)c1`, the IC50 was 6.3 nM.
Same read-out and setting: to `C[C@H]1CN(c2cc(CC3CC3(F)F)cc(NC3CC(F)(F)C3)c2-c2nn[nH]n2)CCN1Cc1cccnn1` (some centres unmarked) belongs 3.45 nM.
Consider `CC(C)Cc1cc(N)c(-c2nn[nH]n2)c(N2CCN(Cc3cccnn3)[C@@H](C)C2)c1`, for which the IC50 stood at 6.53 nM.
Same read-out and setting: to `CC(C)Cc1cc(C2CC(F)(F)C2)c(-c2nn[nH]n2)c(N2CCN(Cc3cccnn3)[C@@H](C)C2)c1` belongs 4.77 nM.
On the same count and under the same terms, to `CC(C)Cc1cc(NC23CC(C2)C3)c(-c2nn[nH]n2)c(N2CCN(Cc3cccnn3)[C@@H](C)C2)c1` belongs 8.47 nM; to `CC(C)Cc1cc(NC(=O)C2CC(F)(F)C2)c(-c2nn[nH]n2)c(N2CCN(Cc3cccnn3)[C@@H](C)C2)c1`, 3.31 nM.
Same read-out and setting: to `CC(C)Cc1cc(NC2CCC2)c(-c2nn[nH]n2)c(N2CCN(Cc3cccnn3)[C@@H](C)C2)c1` belongs 2.58 nM; to `C[C@H]1CN(c2cc(CC3CC3(F)F)cc(N3CCC(F)(F)C3)c2-c2nn[nH]n2)CCN1Cc1cccnn1` (some centres unmarked), 7 nM.
As for `CC(C)Cc1cc(Oc2cnn(C)c2)c(-c2nn[nH]n2)c(N2CCN(Cc3cccnn3)[C@@H](C)C2)c1`, the IC50 turned out to be 7.41 nM.

Tested on in another data set: not listed separately
Put plainly: Pharmacokinetic behavior in mice. The conditions noted are these: ICR mice, intragastric administration 5 mg/kg. On the procedure: Test Example 3 Study on the pharmacokinetic behavior of the compounds of the present invention in mice
Healthy ICR mice (SPF grade, source: Beijing Vital River Laboratory Animal Technology Co., Ltd.), 3 animals, male, weighing 18-25 g, were intravenously injected with 1 mg/kg of the compound at a dosing volume of 5 mL/kg, formulated with 5% DMSO + 10% Solutol + 85% Saline (w/v). Animals were fasted prior to the test.
Healthy ICR mice (SPF grade, source: Beijing Vital River Laboratory Animal Technology Co., Ltd.), 3 animals, male, weighing 18-25 g, were intragastrically administered with 5 mg/kg of the compound at a dosing volume of 10 mL/kg, formulated with 5% DMSO + 10% Solutol + 85% Saline (w/v). Animals were fasted prior to the test.
(§1) Blood samples (approx. 0.05 mL each) were collected via the cheek at 5 min, 15 min, 30 min, 1 h, 2 h, 4 h, 6 h, 8 h, and 24 h after intravenous administration, and at 5 min, 15 min, 30 min, 1 h, 2 h, 4 h, 6 h, 8 h, and 24 h after intragastric administration, respectively, using sodium heparin as an anticoagulant. After collection, the blood samples were placed on ice, and the plasma was separated by centrifugation within 1 hour (centrifugation conditions: 6000 g, 3 minutes, 2-8 °C). The concentration of the compound in plasma was determined by liquid chromatography-tandem mass spectrometry. Plasma samples were stored in a -80 °C freezer before analysis. Pharmacokinetic parameters were calculated using Phoenix WinNonlin 8.2.0 based on plasma concentration data at different time points.
`CC(C)Cc1cc(NC2CC2)c(-c2nn[nH]n2)c(N2CCN(Cc3cccnn3)[C@@H](C)C2)c1` gave an AUClast of 26737 ng·h/mL, a Cmax of 11236 ng/mL and a T1/2 of 2.41 h.
The molecule `C[C@H]1CN(c2cc(CC3CC3(F)F)cc(NC3CC(F)(F)C3)c2-c2nn[nH]n2)CCN1Cc1cccnn1` (some centres unmarked) yielded an AUClast of 28784 ng·h/mL, a Cmax of 15358 ng/mL and a T1/2 of 1.6 h.

Still in this data set, the particulars now being: ICR mice, intragastric administration 5 mg/kg vs intravenous 1 mg/kg.
The molecule `CC(C)Cc1cc(NC2CC2)c(-c2nn[nH]n2)c(N2CCN(Cc3cccnn3)[C@@H](C)C2)c1` had a F(%) of 96%.
Same read-out and setting: to `C[C@H]1CN(c2cc(CC3CC3(F)F)cc(NC3CC(F)(F)C3)c2-c2nn[nH]n2)CCN1Cc1cccnn1` (some centres unmarked) belongs 73.5%.

Staying with this data set, now noted: ICR mice, intravenous injection 1 mg/kg.
Turning to `CC(C)Cc1cc(NC2CC2)c(-c2nn[nH]n2)c(N2CCN(Cc3cccnn3)[C@@H](C)C2)c1`, the AUClast was found to be 5551 ng·h/mL, the CL is 3.03 mL/min/kg, the Cmax is recorded as 4599 ng/mL and the Vss was determined as 0.372 L/kg.
On the same counts, the results for `C[C@H]1CN(c2cc(CC3CC3(F)F)cc(NC3CC(F)(F)C3)c2-c2nn[nH]n2)CCN1Cc1cccnn1` (some centres unmarked) are 7828 ng·h/mL, 2.02 mL/min/kg, 6257 ng/mL and 0.306 L/kg.

Tested on in the next data set: not listed separately
Briefly: Pharmacokinetic behavior in rats. As to conditions: SD rats, intragastric administration 5 mg/kg. How it is done:
Test Example 4 Study on the pharmacokinetic behavior of the compounds of the present invention in rats
Healthy SD rats (SPF grade, source: Beijing Vital River Laboratory Animal Technology Co., Ltd.), 3 animals, male, weighing 180-250 g, were intravenously injected with 1 mg/kg of the compound at a dosing volume of 2 mL/kg. The compound was formulated with 5% DMSO + 10% Solutol + 85% Saline (w/v), and the animals were not fasted prior to the test.
Healthy SD rats (SPF grade, source: Beijing Vital River Laboratory Animal Technology Co., Ltd.), 3 animals, male, weighing 180-250 g, were intragastrically administered with 5 mg/kg of the compound at a dosing volume of 10 mL/kg. The compound was formulated with 5% DMSO + 10% Solutol + 85% Saline (w/v), and the animals were not fasted prior to the test.
as §1, with “0.25” for “0.05”, “vein” for “cheek”
In turn, `CC(C)Cc1cc(NC2CC2)c(-c2nn[nH]n2)c(N2CCN(Cc3cccnn3)[C@@H](C)C2)c1` came in with an AUClast of 72093 ng·h/mL, a Cmax of 7089 ng/mL and a T1/2 of 4.08 h.

The data set is the same for the next values; noted with them: SD rats, intragastric administration 5 mg/kg vs intravenous 1 mg/kg.
Turning to `CC(C)Cc1cc(NC2CC2)c(-c2nn[nH]n2)c(N2CCN(Cc3cccnn3)[C@@H](C)C2)c1`, the “F(%)” value is 100%.

Still in this data set, the particulars now being: SD rats, intravenous injection 1 mg/kg.
Molecule `CC(C)Cc1cc(NC2CC2)c(-c2nn[nH]n2)c(N2CCN(Cc3cccnn3)[C@@H](C)C2)c1` registered an AUClast of 14313 ng·h/mL, a CL of 1.17 mL/min/kg, a Cmax of 5510 ng/mL and a Vss of 0.243 L/kg.

Usually IC50 stands for the midpoint of a concentration-inhibition curve. One may read the Cmax as the maximum level reached in the sampled fluid or tissue. By Vss is commonly meant a proportionality between amount in the body and measured concentration, not a real space.
